The test has as its target KDR (h) (VEGFR2) (Homo sapiens (Human), UniProt P35968). Briefly: KDR (VEGFR2) (enzymatic assay), TR-FRET. It counts as biochemical. To be noted: 3 μM ATP; read-out: VEGFR KDR pIC50 (converted). For orientation: Time-resolved FRET reads energy transfer from a long-lived donor to a nearby acceptor.

Protein sequences, listed by entry. Tags and fused reporters are not part of them. Residues count along the entry.
UniProt P35968, 20-1356: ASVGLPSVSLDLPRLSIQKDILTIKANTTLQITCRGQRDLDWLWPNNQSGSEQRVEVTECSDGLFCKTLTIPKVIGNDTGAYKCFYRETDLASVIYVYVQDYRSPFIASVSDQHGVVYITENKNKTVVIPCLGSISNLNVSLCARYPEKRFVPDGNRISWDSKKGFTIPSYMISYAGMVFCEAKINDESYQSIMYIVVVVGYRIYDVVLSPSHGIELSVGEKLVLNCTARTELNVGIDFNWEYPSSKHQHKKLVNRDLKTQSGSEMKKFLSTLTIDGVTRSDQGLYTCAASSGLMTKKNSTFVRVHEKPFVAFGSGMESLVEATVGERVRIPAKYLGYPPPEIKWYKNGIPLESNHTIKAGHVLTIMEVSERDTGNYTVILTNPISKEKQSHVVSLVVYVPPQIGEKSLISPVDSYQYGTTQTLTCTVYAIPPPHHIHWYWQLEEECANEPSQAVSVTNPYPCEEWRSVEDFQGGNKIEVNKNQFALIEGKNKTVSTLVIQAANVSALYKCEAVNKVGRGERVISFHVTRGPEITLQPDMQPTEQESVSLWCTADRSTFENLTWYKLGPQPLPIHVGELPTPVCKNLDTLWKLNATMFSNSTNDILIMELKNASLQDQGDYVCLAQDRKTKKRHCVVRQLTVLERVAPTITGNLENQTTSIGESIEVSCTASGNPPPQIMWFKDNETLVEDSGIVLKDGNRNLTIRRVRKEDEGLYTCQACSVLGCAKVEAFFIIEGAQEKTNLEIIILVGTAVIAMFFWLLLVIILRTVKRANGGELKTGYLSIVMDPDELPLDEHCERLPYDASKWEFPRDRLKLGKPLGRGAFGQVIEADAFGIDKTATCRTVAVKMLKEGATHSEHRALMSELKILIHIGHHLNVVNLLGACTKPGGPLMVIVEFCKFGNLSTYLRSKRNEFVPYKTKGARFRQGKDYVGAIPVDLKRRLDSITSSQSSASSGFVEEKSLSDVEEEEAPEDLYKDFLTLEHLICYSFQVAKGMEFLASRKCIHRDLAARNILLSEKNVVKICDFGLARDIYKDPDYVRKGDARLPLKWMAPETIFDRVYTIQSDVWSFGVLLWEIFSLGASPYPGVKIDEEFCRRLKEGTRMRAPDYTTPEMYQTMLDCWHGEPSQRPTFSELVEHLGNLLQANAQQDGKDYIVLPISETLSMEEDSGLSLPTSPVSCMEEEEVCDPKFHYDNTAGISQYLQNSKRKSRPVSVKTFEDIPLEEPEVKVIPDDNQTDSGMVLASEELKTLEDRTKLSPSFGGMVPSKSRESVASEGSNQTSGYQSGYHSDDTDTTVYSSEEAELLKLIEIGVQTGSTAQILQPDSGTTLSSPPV

The results in this text go back to patent US9902714B2, “Quinoxaline derivatives useful as FGFR kinase modulators” (ASTEX THERAPEUTICS LTD, priority 2014, dated 2018).

Regarding `COc1cc(OC)c2c(c1)N(c1ccc3ncc(-c4cnn(C)c4)nc3c1)CCN(C(C)C)C2` [Compound 1], the IC50 was 2510 nM.
